Here are results for 60 compounds from published antibiotic growth screens (doi:10.1038/s41589-023-01349-8).

Molecules are shown by their SMILES. The list shows a part of the results.

The subject of the assay is A. baumannii ATCC 17978. Briefly: relative growth (fraction of control); higher = less inhibition. The settings on record: 50 µM.
As to `Nc1cnn(-c2ccccc2)c(=O)c1N`, the relative growth was found to be 0.854.
With `Cc1nccnc1N1CCCCC1.O=S(=O)(O)O` the figure was 1; with `COC(=O)CSc1cc(C)nc(N)n1`, 1.
The result for `CCCCCCCCCCCCCCCC(=O)NCCO` reads 0.995; that for `Cc1cc(C(C)(C)C)cc(C)c1CC1=NCCN1.Cl`, 1.19; that for `COC(=O)C(CC#Cc1ccc2c(c1)[C@]1(C(=O)N2)[C@H](C(=O)N2CCc3cc(OC)c(OC)cc3C2)[C@H]2C(=O)O[C@H](c3ccccc3)[C@H](c3ccccc3)N2[C@@H]1c1ccc(OCCO)cc1)C(=O)OC`, 1.46.
The result for `CO[C@@H]1CN(C)C(=O)c2ccc(NC(=O)C3CC3)cc2OC[C@H](C)N(C(=O)CN2CCOCC2)C[C@H]1C` reads 0.979; that for `O=C(C[C@H]1C=C[C@H](NC(=O)Cc2ccccn2)[C@@H](CO)O1)NCCCN1CCOCC1`, 1.06; that for `CNC(=O)C[C@H]1CC[C@@H]2[C@H](COC[C@H](O)CN2C(=O)c2ccccn2)O1`, 0.984.
`C=C1C2CC[C@@]3(C)[C@H](c4ccoc4)OC(=O)C[C@]13O[C@H]1CC(O)C(C)(C)C(CC(=O)OC)[C@@]21C` (stereo partly drawn) [3alpha-HYDROXY-3-DEOXYANGOLENSIC ACID METHYL ESTER] registered a relative growth of 1.04.
The result for `O=C(O)c1n[nH]c2c1CCCC2` reads 0.937; that for `C[C@H](CO)N1C[C@H](C)[C@H](CN(C)Cc2ccc(F)cc2)Oc2cc(C#CC(C)(C)O)ccc2S1(=O)=O`, 0.87.
The result for `CN1C(=O)[C@@H]2[C@H](N=CN2CCCO)N(C)C1=O` reads 0.991; that for `Cc1ccc(-c2nc(Nc3ccccc3F)sc2C)cc1`, 1.12.
Compound `C#Cc1ccc(C(=O)NO)cc1` registered a relative growth of 0.945.
Turning to `COc1cccc(OC)c1C(=O)NCCCO`, the relative growth amounted to 0.922.
With `c1ccc([C@@H]2Oc3ccccc3[C@@H]3Oc4ccccc4C[C@@H]23)cc1` the figure was 1.18; with `O=C(C1=C[C@H](c2coc3ccccc3c2=O)C[C@H](OCCCCO)O1)N1CCN(Cc2ccc3c(c2)OCO3)CC1`, 1.08; with `CN1C(=O)Cc2cc(NS(C)(=O)=O)ccc21`, 0.944.
With `CO[C@H](CN(C)C(=O)c1ccc2c(c1)OCO2)[C@H](C)CN([C@H](C)CO)S(=O)(=O)c1ccc(C)cc1` the figure was 0.966.
The result for `CCc1cnc2c(c1OC)c(=O)[nH]c(=O)n2C` reads 0.94; that for `Cc1c(N(C)CS(=O)(=O)[O-])c(=O)n(-c2ccccc2)n1C.[Na+]`, 0.975.
`C=CCC[C@H](Cc1ccc(F)cc1)C(=O)OC[C@H](Cc1c[nH]c2ccccc12)NC(=O)[C@H](CC=C)CC(=O)N(CCO)Cc1ccccc1` had a relative growth of 1.62.
In turn, `CC(C)CC#Cc1ccc2c(c1)O[C@H](CN(C)C(=O)NC1CCCC1)[C@@H](C)CN([C@H](C)CO)S2(=O)=O` showed a relative growth of 0.867.
With `CC(=O)Nc1ccc(C(=O)NN)cc1` the figure was 0.957; with `CSC[C@H]1O[C@H](n2ccc3c(N)ncnc32)[C@@H](O)[C@H]1O`, 1.07.
With `O=C(CN1CCOCC1)N[C@@H]1CC[C@@H](CCn2cc(C3CC3)nn2)O[C@H]1CO` the figure was 1.04; with `CC(C)NC(=O)N[C@H]1C=C[C@H](CC(=O)NCCCN(C)C)O[C@H]1CO`, 1.07; with `Cn1cnc(S(=O)(=O)N[C@@H]2CC[C@H](CC(=O)Nc3ccccc3)O[C@H]2CO)c1`, 0.938.
For `Cc1ccc(C(=N)NO)n1C`, the relative growth was 0.967.
With `NNC(=O)c1ccc(/C=N\O)nc1` the figure was 1.14; with `CCCNC(=O)N[C@@H]1C=C[C@H](CC(=O)N2CCN(C)CC2)O[C@H]1CO`, 1.04.
With `CCOCCn1c(N2CCCN(C)CC2)nc2ccccc21.O=C(O)/C=C/C(=O)O.O=C(O)/C=C/C(=O)O` the figure was 1.04.
On to `CC[C@@]1(C)OC(=O)N(C)C1=O`, for which the relative growth turned out to be 0.966.
With `O=C(C[C@H]1CC[C@H](NC(=O)CN2CCOCC2)[C@@H](CO)O1)NC1CCC1` the figure was 1.11; with `CC(C)CC#Cc1ccc2c(c1)O[C@@H](CN(C)C(=O)Cc1ccncc1)[C@@H](C)CN([C@@H](C)CO)S2(=O)=O`, 0.977.
The compound `CCCS(=O)(=O)N1CCC[C@H](C(=O)NC)C1` displayed a relative growth of 1.01.
With `O=C(CN1CCOCC1)N[C@@H]1CC[C@@H](CCNC(=O)C2CCC2)O[C@H]1CO` the figure was 0.979; with `Cc1ccc(-c2ccc(N)cc2)cc1`, 1.09; with `CC1CCc2c(N3CCC(O)CC3)c(F)cc3c(=O)c(C(=O)O)cn1c23` (stereo not given), 0.153.
With `COc1cccc(NC(=O)N[C@H]2C=C[C@@H](CC(=O)N3CCN(C)CC3)O[C@@H]2CO)c1` the figure was 1.1; with `COCC(=O)N1C[C@@H](C)[C@@H](OC)CN(C)C(=O)c2ccc(NC(=O)Nc3ccccc3)cc2OC[C@H]1C`, 0.971; with `CCCc1cc(=O)oc2cc3occ(-c4ccccc4)c3cc12`, 1.07.
With `O=C(C[C@@H]1CC[C@@H]2[C@H](COC[C@H](O)CN2C(=O)C2CC2)O1)NCc1ccncc1` the figure was 1.18.
`Cc1cc(=O)n(-c2ccccc2)n1C`: the relative growth worked out at 0.975.
Take `O=c1c2ccccc2oc2ccccc12`: the relative growth was determined as 1.04.
Take `C[C@@H]1O[C@@H](O[C@@H]2[C@@H](O)[C@H](O)[C@@H](CO)O[C@H]2c2c(O)cc(O)c3c(=O)cc(-c4ccc(O)cc4)oc23)[C@H](O)[C@H](O)[C@H]1O`: the relative growth was 1.09.
`CC(=O)Oc1cncc(C(=O)O)c1` registered a relative growth of 1.03.
With `CCC(=O)Nc1nc(C(=O)NC)cs1` the figure was 1.01.
The result for `Cc1cccc(S(=O)(=O)N2C[C@@H](O)COC[C@@H]3O[C@H](CC(=O)N4CCN(C)CC4)CC[C@H]32)c1` reads 1.07; that for `O=C(Nc1ccccc1)c1ccco1`, 1.
In turn, `C[C@H]1CN([C@@H](C)CO)S(=O)(=O)c2ccc(-c3ccc(C(=O)N(C)C)cc3)cc2O[C@@H]1CN(C)C(=O)Cc1ccccn1` registered a relative growth of 1.
With `COc1cnc(SC)n(C)c1=O` the figure was 0.889.
Compound `N[C@H](c1ccc2c(c1)OCCO2)c1ccco1` registered a relative growth of 0.994.
The result for `CN(C)C(=O)C[C@@H]1C=C[C@H](NC(=O)C2CCOCC2)[C@H](CO)O1` reads 1.04; that for `CC(C)C#Cc1ccc2c(c1)O[C@@H](CN(C)C(=O)c1cccc(F)c1)[C@H](C)CN([C@H](C)CO)S2(=O)=O`, 0.99.
With `O=C(CN1CCOCC1)N[C@@H]1CC[C@@H](CCNS(=O)(=O)c2ccccc2F)O[C@@H]1CO` the figure was 0.747.
`C[C@H](NC(=O)C[C@H]1CC[C@@H](NC(=O)CN2CCOCC2)[C@@H](CO)O1)c1ccccc1` came in with a relative growth of 1.15.
The result for `CCCc1ncc(C[n+]2ccccc2C)c(N)n1.[Cl-]` reads 1.28; that for `COCC#Cc1ccc2c(c1)O[C@@H](CN(C)C(=O)Nc1ccccc1F)[C@H](C)CN([C@@H](C)CO)S2(=O)=O`, 0.986.
